Measurements reported in patent US20110009343A1, “MODULATORS OF AMYLOID AGGREGATION” (Praecis Pharmaceuticals, Inc., priority 1995, published 2011).

The chains behind the UniProt entries cited, without tags or fusion partners. Residues count along the entry.
UniProt P05067, 672-711: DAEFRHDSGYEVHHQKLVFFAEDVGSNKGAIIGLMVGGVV

Experiments:
Aβ1-40 = molecular target: T1, Aβ1-40 (Homo sapiens, UniProt P05067); assay: Nucleation assay (turbidity, A405 nm); format: biochemical; details: Table II; 100 mole % vs 50 μM Aβ1-40;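 note: synthetic Aβ monomer polymerization followed by turbidity in 96-well plates with continuous shaking, read every 15 minutes over 5 hours, compared against wells lacking test compound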
T1 construct: (β-AP1-40) was obtained commercially from Bachem (Torrance, Calif.); purchased Bachem (Torrance, Calif.)

Aβ(1-40) peptide = molecular target: T2, Aβ(1-40) peptide (Homo sapiens, UniProt P05067); assay: Seeded static assay (SSA), Thioflavin-T fluorescence; format: biochemical; details: inhibitor tested at 100 μM and 10 μM
T2 construct: (β-AP1-40) was obtained commercially from Bachem (Torrance, Calif.); purchased Bachem (Torrance, Calif.)

Row | Fold Increase in Lag Time (Aβ1-40) | SMILES | Effect in Seeded Static Assay (Aβ(1-40) peptide)
1 | 1.9 fold | CC(C)C[C@H](NC(=O)[C@H](CCCCN)NC(=O)[C@H](CCC(N)=O)NC(=O)[C@H](Cc1c[nH]cn1)NC(=O)[C@H](Cc1c[nH]cn1)NC(=O)[C@@H](NC(=O)[C@H](CCC(=O)O)NC(=O)[C@H](Cc1ccc(O)cc1)NC(=O)CNC(=O)[C@H](CO)NC(=O)[C@H](CC(=O)O)NC(=O)[C@H](Cc1c[nH]cn1)NC(=O)c1ccc2c(c1)C(=O)OC21c2ccc(O)cc2Oc2cc(O)ccc21)C(C)C)C(=O)N[C@H](C(=O)N[C@@H](Cc1ccccc1)C(=O)N[C@@H](Cc1ccccc1)C(=O)O)C(C)C [PPI-268] | –
2 | 1.2 fold | CC[C@H](C)[C@H](NC(=O)[C@H](C)NC(=O)CNC(=O)[C@H](CCCCN)NC(=O)[C@H](CC(N)=O)NC(=O)[C@H](CO)NC(=O)CNC(=O)[C@@H](NC(=O)[C@H](CC(=O)O)NC(=O)[C@H](CCC(=O)O)NC(=O)[C@H](C)NC(=O)c1ccc2c(c1)C(=O)OC21c2ccc(O)cc2Oc2cc(O)ccc21)C(C)C)C(=O)N[C@H](C(=O)NCC(=O)N[C@@H](CC(C)C)C(=O)N[C@@H](CCSC)C(=O)O)[C@@H](C)CC [PPI-283] | –
3 | – | CC[C@H](C)[C@H](NC(=O)[C@H](C)NC(=O)CNC(=O)[C@H](CCCCN)NC(=O)[C@H](CC(N)=O)NC(=O)[C@H](CO)NC(=O)CNC(=O)[C@@H](NC(=O)[C@H](CC(=O)O)NC(=O)[C@H](CCC(=O)O)NC(=O)[C@H](C)NC(=O)[C@H](Cc1ccccc1)NC(=O)[C@H](Cc1ccccc1)NC(=O)[C@@H](NC(=O)[C@H](CC(C)C)NC(=O)[C@H](CCCCN)NC(=O)[C@H](CCC(N)=O)NC(=O)[C@H](CCC(N)=O)NC(=O)[C@H](Cc1c[nH]cn1)NC(=O)[C@H](Cc1c[nH]cn1)NC(=O)[C@H](Cc1c[nH]cn1)NC(=O)[C@H](Cc1c[nH]cn1)NC(=O)[C@@H](NC(=O)[C@@H](NC(=O)[C@H](CCC(=O)O)NC(=O)[C@@H](N)CCC(=O)O)C(C)C)C(C)C)C(C)C)C(C)C)C(=O)N[C@H](C(=O)NCC(=O)N[C@@H](CC(C)C)C(=O)N[C@@H](CCSC)C(=O)N[C@H](C(=O)NCC(=O)NCC(=O)N[C@H](C(=O)N[C@H](C(=O)O)C(C)C)C(C)C)C(C)C)[C@@H](C)CC [PPI-220] | ++ (A strong inhibitor of aggregation. The rate of aggregation in the presence of the inhibitor was decreased compared to the control by at least 30-50%)
4 | 1.6 fold | CC(C)C[C@H](NC(=O)[C@H](CCCCN)NC(=O)c1ccc2c(c1)C(=O)OC21c2ccc(O)cc2Oc2cc(O)ccc21)C(=O)N[C@H](C(=O)N[C@@H](Cc1ccccc1)C(=O)N[C@@H](Cc1ccccc1)C(=O)N[C@@H](C)C(=O)N[C@@H](CCC(=O)O)C(=O)N[C@@H](CC(=O)O)C(=O)N[C@H](C(=O)NCC(=O)N[C@@H](CO)C(=O)N[C@@H](CC(N)=O)C(=O)N[C@@H](CCCCN)C(=O)NCC(=O)N[C@@H](C)C(=O)O)C(C)C)C(C)C [PPI-278] | –
